Results taken from patent publication US6653135B1, “Dynamic protein signature assay” (University of Maryland, priority 2000, dated 2003).
Read-outs that look alike come from different tables or passages of the source.

Tested on: Mytilus edulis haemolymph cell lysosomes
Details: 80 ppb CuSO4, 24 hrs

## O=S(=O)([O-])[O-].[Cu+2] [CuSO4, copper sulfate]
  Lysosomal Destabilization Ratio: 0.32±0.11
Listed as copper sulfate
  Lysosomal Destabilization Ratio: 0.32±0.11
